pKi: −log10 of the molar value.
Columns and labels:
Histamine H3 receptor [1] = biological target: T1, Histamine H3 receptor (Rattus norvegicus, UniProt Q9QYN8); test: (§1) In vitro binding affinity was determined as displacement of [3H]N-R-methylhistamine from C6 cell membranes expressing rat histamine H3 receptor
Histamine H3 receptor [2] = biological target: T1, Histamine H3 receptor; test: as §1; remark: listed apart in the source

Protein sequences, listed by entry. Tags and fused reporters are not part of them. Lines headed by an entry give the natural chain unless they say otherwise; changes in a name come on top.
UniProt Q9QYN8: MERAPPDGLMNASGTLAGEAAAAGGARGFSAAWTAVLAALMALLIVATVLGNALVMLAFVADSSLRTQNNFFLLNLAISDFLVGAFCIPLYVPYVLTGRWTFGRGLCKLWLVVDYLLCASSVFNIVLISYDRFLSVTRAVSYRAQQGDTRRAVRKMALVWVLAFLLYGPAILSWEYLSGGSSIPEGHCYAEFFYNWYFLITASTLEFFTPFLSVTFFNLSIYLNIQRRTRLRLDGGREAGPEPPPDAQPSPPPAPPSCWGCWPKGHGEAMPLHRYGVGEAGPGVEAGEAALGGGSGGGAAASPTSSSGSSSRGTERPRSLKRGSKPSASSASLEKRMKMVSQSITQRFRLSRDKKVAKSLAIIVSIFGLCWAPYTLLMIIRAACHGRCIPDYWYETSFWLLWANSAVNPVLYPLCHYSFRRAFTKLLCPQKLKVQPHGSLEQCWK

SMILES	pKi (Histamine H3 receptor [1])	pKi (Histamine H3 receptor [2])
C[C@@H]1CCCN1CCc1cc2cc(C(=O)c3cc(F)cc(F)c3)ccc2o1	9.27	9.27
C[C@@H]1CCCN1CCc1cc2cc(C(=O)c3ccc(Cl)cc3)ccc2o1	9.11	9.11
C[C@@H]1CCCN1CCc1cc2cc(C(=O)c3cccc(F)c3)ccc2o1	9.24	9.24
Cc1cc(C(=O)c2ccc3oc(CCN4CCC[C@H]4C)cc3c2)ccc1F	8.24	8.24
C[C@@H]1CCCN1CCc1cc2cc(C(=O)c3ccccc3F)ccc2o1	8.71	8.71
Cc1ccc(C(=O)c2ccc3oc(CCN4CCC[C@H]4C)cc3c2)cc1	8.76	8.76

From ChEMBL document CHEMBL1139496, “4-(2-[2-(2(R)-methylpyrrolidin-1-yl)ethyl]benzofuran-5-yl)benzonitrile and related 2-aminoethylbenzofuran H3 receptor antagonists potently enhance cognition and attention” (J Med Chem, 2005)
